Test results taken from ChEMBL document CHEMBL1123051, “In the search for new anticancer drugs. 13. Phosphonic and phosphinic analogues of ornithine” (1985).

What was measured:
[1] = biological target: T1, Ornithine decarboxylase (Rattus norvegicus) (UniProt P09057); experiment: Compound was tested for its inhibition against ornithine decarboxylase from rat liver at low concentration; NA means not active
T1 sequence (whole entry): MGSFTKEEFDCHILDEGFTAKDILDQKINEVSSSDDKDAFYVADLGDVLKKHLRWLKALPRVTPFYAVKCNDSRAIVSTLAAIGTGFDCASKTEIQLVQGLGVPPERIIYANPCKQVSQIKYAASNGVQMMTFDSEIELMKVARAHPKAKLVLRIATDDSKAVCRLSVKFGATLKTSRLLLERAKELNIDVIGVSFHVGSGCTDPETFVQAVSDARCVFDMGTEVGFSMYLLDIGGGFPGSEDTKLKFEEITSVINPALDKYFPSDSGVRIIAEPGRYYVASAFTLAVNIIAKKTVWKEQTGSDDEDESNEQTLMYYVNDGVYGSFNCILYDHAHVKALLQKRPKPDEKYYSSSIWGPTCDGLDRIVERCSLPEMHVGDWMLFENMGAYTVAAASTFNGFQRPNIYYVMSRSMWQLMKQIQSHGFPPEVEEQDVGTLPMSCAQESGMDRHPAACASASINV

[2] = biological target: T1, Ornithine decarboxylase (Rattus norvegicus); experiment: Compound was tested for its inhibition against ornithine decarboxylase from rat liver at 5 mM concentration

Compound | Activity [1] | inhibition [2] [%]
CC(N)(CCCN)OP(O)O (configuration not stated) | inactive | 
NCCCC(N)OP(O)O (configuration not stated) |  | 40

Activity calls are given as the source filed them. The rule behind the calls is not given here.
